In PubChem BioAssay AID923 (National Center for Advancing Translational Sciences (NCATS), 2007) one finds fluorescence increase data, which are given here for five compounds.

The list shows a part of the results, in another mix than the full data. Some of these compounds have results that are not shown, active ones among them. The source made the active and inactive calls. The call rests on the fitted dose curve; in most records, active means well fitted activation curve with a large enough effect; inconclusive means small, poorly fitted or top-dose-only effect; inactive means flat fitted curve, though single readings scatter.

The assay is described as follows: qHTS Assay for Allosteric/Competitive Inhibitors of Caspase-1: Spectroscopic Profiling in AFC Spectral Region. Further: 0% is about no effect. The conditions noted are these: compound fluorescence, AFC spectral region (405/520 nm); at 11.5 µM (top of the series) unless noted. On the technique in general: Quantitative high-throughput screening tests each substance at several concentrations.
Regarding `CN1CCC[C@H](OC(=O)[C@](O)(c2ccccc2)C2CCCC2)C1`, the fluorescence increase was inactive: -1%. In the case of `CN1CC[C@H](OC(=O)[C@](O)(c2ccccc2)C2CCCC2)C1`, the fluorescence increase was inactive: 4.76%. Turning to `O=C(OC1CN2CCC1CC2)C(CO)(c1ccccc1)c1ccccc1` (stereo not given), the fluorescence increase was inactive: -0.0419% [at 57.5 µM]. On to `C=C(C)C#C[C@@](O)(C(=O)OC1CCN(C)CC1)c1ccccc1`, for which the fluorescence increase was inactive: 1.03%. With `CN(C)c1cccc(C(=O)NCC2(N(C)C)CCCCC2)c1`, the fluorescence increase was inactive: 3.91% [at 57.5 µM].
